Target: Acetylcholinesterase (Homo sapiens, UniProt P22303)
Assay: Assay of Substrate Hydrolysis
Conditions: pH 7; 25 °C

The chains behind the UniProt entries cited, without tags or fusion partners. Where a name states a change or a piece, a line headed by the entry shows the natural chain unless it says otherwise.
UniProt P22303: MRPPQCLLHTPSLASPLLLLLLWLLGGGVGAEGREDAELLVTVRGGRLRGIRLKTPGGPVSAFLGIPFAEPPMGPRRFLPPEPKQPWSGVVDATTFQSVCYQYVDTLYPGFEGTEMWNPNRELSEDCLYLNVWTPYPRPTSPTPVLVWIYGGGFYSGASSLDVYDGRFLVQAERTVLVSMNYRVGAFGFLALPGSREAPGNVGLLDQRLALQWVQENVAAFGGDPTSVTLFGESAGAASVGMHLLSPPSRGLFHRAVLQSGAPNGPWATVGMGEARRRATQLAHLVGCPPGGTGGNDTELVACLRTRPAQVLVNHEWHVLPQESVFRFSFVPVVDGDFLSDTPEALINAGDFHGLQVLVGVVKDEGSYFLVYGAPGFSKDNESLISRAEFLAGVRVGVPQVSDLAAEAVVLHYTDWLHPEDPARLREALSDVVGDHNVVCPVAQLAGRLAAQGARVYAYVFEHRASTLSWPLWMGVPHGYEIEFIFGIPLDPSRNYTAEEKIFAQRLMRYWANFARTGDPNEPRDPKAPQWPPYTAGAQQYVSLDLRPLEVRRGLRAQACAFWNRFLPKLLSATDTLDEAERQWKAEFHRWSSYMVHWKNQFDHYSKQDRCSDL

CN(C)c1ccc2nc3ccc(=[N+](C)C)cc-3sc2c1 [Methylene Blue anhydrous]
Ki: 110 nM

Reference: BindingDB's records for doi:10.1021/bi401043w (Mayo Clinic, 2013)
